# Earlier results, collected in patent publication US12357621B2, “BET inhibitors as a treatment for myelofibrosis” (Impact Biomedicines, Inc., priority 2021, dated 2025).
# Protein sequences, listed by entry. Tags and fused reporters are not part of them. Lines headed by an entry give the natural chain unless they say otherwise; changes in a name come on top.
# UniProt O60674: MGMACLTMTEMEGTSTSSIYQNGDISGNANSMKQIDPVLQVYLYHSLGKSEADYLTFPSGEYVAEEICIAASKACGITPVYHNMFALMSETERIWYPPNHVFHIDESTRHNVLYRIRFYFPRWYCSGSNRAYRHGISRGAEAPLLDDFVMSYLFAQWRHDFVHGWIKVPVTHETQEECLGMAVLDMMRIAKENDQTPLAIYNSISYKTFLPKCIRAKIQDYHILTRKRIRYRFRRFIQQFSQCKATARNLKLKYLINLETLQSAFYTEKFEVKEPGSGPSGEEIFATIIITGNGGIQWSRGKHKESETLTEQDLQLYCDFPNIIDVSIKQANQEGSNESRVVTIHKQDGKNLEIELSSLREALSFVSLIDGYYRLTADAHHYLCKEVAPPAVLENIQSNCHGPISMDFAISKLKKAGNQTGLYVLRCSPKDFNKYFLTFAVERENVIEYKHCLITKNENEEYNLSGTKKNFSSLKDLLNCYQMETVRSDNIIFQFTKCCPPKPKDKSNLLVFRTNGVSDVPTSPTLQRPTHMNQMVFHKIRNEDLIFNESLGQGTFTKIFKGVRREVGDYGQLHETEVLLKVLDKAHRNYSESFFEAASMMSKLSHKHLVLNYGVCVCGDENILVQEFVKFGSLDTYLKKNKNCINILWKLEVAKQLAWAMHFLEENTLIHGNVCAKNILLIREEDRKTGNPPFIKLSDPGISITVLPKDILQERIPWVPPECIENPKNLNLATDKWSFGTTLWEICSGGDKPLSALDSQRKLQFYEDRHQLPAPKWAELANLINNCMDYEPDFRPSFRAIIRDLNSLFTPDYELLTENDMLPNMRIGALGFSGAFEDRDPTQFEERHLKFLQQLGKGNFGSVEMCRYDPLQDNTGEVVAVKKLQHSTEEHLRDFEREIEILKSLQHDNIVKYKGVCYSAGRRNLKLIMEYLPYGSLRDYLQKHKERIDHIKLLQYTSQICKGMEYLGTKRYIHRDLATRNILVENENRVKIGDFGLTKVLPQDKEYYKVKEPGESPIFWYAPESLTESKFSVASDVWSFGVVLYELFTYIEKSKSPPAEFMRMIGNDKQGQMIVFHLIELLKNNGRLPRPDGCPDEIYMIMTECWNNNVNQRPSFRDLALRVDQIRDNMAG
# Biological target: JAK2 (Homo sapiens, UniProt O60674)
# Details: cited from earlier work
smiles,measurement,value
Cc1cnc(Nc2ccc(OCCN3CCCC3)cc2)nc1Nc1cccc(S(=O)(=O)NC(C)(C)C)c1 [fedratinib],"inhibitory activity for JAK2 over family members JAK1, JAK3, and TYK2",higher
